Experimental data reported in patent US11459397B2, “Self-crosslinking antibodies” (Meditope Biosciences, Inc., priority 2016, dated 2022).

Test system: HER2 expressing SK-OV-3-Luc ovarian xenograft
Test: efficacy in SK-OV-3-Luc ovarian xenograft subcutaneous model
Type: in vivo, mice
Experimental: This study was performed to evaluate the efficacy of ADC constructs against HER2 expressing SK-OV-3-Luc ovarian xenograft subcutaneous model using both bioluminescent imaging and traditional tumor caliper measurement. Sixty-five female athymic nudes, 4 weeks old of age were obtained from Charles River. SK-OV-3-Luc cells were expanded using standard tissue culture technique. On the day of implantation, 2.5×10^6 cells in incomplete media with 30% matrigel were implanted to the right lower flank of each mouse. Animals were stratified into 7 groups of 8 mice for treatment based on the total flux (Perkin Elmer IVIS Lumina XRMS II) at day 10 pi. Animals were weighed twice weekly in conjunction with tumor measurements. Bioluminescent Imaging were performed once a week. Tumor mass were calculated using the following formula: Mass (mg)=Tumor volume (mm^3)=d^2×D/2, where d and D are the shortest and longest diameter in mm, respectively.
Animals were treated according to the following table (BIW: twice a week; QW: once a week, DM1: Mertansine, MMAD: Monomethyl auristatin D, ADC: antibody-drug conjugate): […]

Row | Substance | tumor response compared to the vehicle group (9 mg/kg ip BIW, day 66 pi) | tumor response (3 mg/kg ip BIW)
1 | Trastuzumab: anti-HER-2 antibody | complete regression | 
2 | Kadcyla: trastuzumab conjugated to maytansinoid toxin; anti-Her2 ADC |  | showed efficacy
